Results from US7326707B2, “Bicyclic melanocortin-specific compounds” (Palatin Technologies Incorporated, priority 2001, dated 2008).
Values belong to the compound of their own block, whether it stands above or below them.

The chains behind the UniProt entries cited, without tags or fusion partners.
UniProt P33032, whole entry: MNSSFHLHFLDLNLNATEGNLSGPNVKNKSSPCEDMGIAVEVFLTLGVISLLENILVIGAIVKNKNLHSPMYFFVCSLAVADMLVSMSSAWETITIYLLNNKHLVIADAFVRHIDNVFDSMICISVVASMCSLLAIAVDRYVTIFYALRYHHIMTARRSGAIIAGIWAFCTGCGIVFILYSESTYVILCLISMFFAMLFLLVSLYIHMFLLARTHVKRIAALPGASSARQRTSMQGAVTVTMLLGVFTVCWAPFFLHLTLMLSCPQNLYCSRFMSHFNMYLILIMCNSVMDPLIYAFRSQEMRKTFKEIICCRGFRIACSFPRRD
UniProt P41968, whole entry: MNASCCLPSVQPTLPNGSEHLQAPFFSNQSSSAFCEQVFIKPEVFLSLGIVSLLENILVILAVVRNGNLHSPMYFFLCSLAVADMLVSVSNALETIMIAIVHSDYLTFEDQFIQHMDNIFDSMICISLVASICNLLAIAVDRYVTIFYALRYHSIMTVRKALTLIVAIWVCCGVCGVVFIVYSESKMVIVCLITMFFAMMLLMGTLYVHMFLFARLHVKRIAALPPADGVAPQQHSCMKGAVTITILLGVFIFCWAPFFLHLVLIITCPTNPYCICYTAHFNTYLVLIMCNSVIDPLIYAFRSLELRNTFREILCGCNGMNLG
UniProt Q01727, whole entry: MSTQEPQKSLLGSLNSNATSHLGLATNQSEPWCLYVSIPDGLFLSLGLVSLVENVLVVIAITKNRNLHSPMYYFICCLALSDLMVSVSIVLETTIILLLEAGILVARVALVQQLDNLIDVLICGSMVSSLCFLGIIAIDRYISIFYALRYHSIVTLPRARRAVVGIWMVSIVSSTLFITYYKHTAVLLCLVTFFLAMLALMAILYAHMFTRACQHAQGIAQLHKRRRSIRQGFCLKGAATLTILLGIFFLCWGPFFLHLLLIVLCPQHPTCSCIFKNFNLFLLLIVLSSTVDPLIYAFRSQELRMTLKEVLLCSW

What was measured:
Male Sprague-Dawley rats = assay: ICV food intake and body weight change; conditions: 1 nmol dose
hMC5-R = hMC5-R (Homo sapiens, UniProt P33032); assay: Competitive inhibition binding assay, 125I-NDP-α-MSH, MC5-R; conditions: 1 μM compound; inhibition of 125I-NDP-α-MSH binding; mean of triplicates; results less than 0% reported as 0%
[1] = molecular target: MC3-R (HEK-293 cells expressing MC3-R) (Homo sapiens, UniProt P41968); assay: Ki determination by the method of Example 4, MC3-R; conditions: read-out: Ki (nM) MC3-R
[2] = molecular target: MC1-R (B-16 mouse melanoma cells) (Mus musculus, UniProt Q01727); assay: cAMP assay for agonist/antagonist status, MC1-R; conditions: cAMP assay as in Example 5

SMILES: N=C(N)NCCC[C@H]1C(=O)N2C(CC[C@@H]2COc2ccc3ccccc3c2)N1C(=O)[C@@H](Cc1ccc(Cl)cc1Cl)NC(=O)[C@@H]1Cc2ccccc2CN1 (some centres unmarked)
24 hour change in food intake (Male Sprague-Dawley rats): -5.4 g | change in weight (Male Sprague-Dawley rats; 24 hour): -1.6 g

Inhibition at 1 μM MC5-R (hMC5-R): 0%
SMILES: NCCCC[C@H]1C(=O)N2C(CC[C@@H]2COc2ccc3ccccc3c2)N1C(=O)[C@@H](Cc1ccccc1)NC(=O)[C@@H](N)Cc1cnc[nH]1 (some centres unmarked)

Ki [1]: 963 nM | agonist/antagonist status as to MC1-R [2]: full agonist
SMILES: N=C(N)NCCC[C@H]1C(=O)N2C(CC[C@@H]2COc2ccc3ccccc3c2)N1C(=O)[C@@H](Cc1ccccc1)NC(=O)[C@@H](N)Cc1cnc[nH]1 (some centres unmarked)
